Measured values taken from patent US8609680B2, “2,3-dihydro-1H-inden-1-yl-2,7-diazaspiro[3.5] nonane derivatives” (Pfizer Inc., priority 2010, dated 2013).

Protein sequences, listed by entry. Tags and fused reporters are not part of them.
UniProt Q92847, whole entry: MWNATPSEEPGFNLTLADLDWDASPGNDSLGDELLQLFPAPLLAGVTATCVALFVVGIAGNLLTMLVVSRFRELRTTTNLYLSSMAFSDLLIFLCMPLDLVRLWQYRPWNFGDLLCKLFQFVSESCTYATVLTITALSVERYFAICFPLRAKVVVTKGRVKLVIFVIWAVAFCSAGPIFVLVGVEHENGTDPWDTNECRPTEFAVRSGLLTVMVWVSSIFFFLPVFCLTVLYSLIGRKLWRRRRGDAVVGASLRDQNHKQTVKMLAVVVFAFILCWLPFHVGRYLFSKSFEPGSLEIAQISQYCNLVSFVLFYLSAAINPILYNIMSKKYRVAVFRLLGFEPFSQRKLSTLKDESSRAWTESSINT

Target: human GHSR1a (Homo sapiens, UniProt Q92847)
Experiment: Human Ghrelin SPA Binding Assay
Details: SPA format, [125I] ghrelin displacement

- IC50 (human GHSR1a membranes from HEK293 Tetracycline-Inducible cell line): 0.0281 µM
- Ki (human GHSR1a membranes, Ki=IC50/(1+[ligand]/Kd)): 0.0265 µM
Structure (SMILES): CCc1ccc(CC(=O)N2CCC3(CC2)CN(C2CCc4cc(-n5nccn5)ccc42)C3)nc1 (racemic)
